This passage reports MIC of ceftazidime results from patent publication US10065957B2, “Beta-lactamase inhibitors” (Novartis AG, priority 2016, dated 2018).

In this assay the test system is E. coli (KPC-2). Particulars: ceftazidime alone.

For the substance Ceftazidime, the MIC of ceftazidime is 4 µg/mL.
